Experimental data published in patent publication US8791050B2, “Herbicidal compositions” (priority 1998, dated 2014).

System: rice
Assay: Selectivity: damage to rice, field trial
Assay type: in vivo
Settings: Table 3 field trial, post-emergence 2-4-leaf stage, scoring 28 days after application
Protocol: The damage and development of all above-ground parts of the plants were recorded. […] The scores of in each case 4 plots were averaged.
Crop plants were grown outdoors on plots under natural outdoor conditions, and seeds or rhizome pieces of typical harmful plants were laid out or the natural weed growth was utilized.

## oxadiargyl [(B4.9)]
25 g of AS/ha
  Damage (in %) to rice: 22%
50 g of AS/ha
  Damage (in %) to rice: 23%
100 g of AS/ha
  Damage (in %) to rice: 22%
